Values quoted from earlier work as cited in patent US7972859B2, “Authentication of ingestible products using saccharides as markers” (Authentix, Inc., priority 2006, dated 2011).

Molecular target: Maltose binding protein (Escherichia coli, UniProt P0AEX9)
Details: T-line comparison; for maltose 'saturated at a KD of'; cited from earlier work

## amylose
  Kd: > 100 µM
